Measured vapor pressure values of organic chemicals

From the experimental data distributed with OPERA 2.9.

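The numbers are reported measurements, compiled and curated for the OPERA QSAR suite. One number stands for a compound and property, with no spread given. How each value was measured is not recorded, so precision varies. The measured form (salt, isomer or mixture) is not always the one drawn. Some entries may be limits or estimates that an upstream database listed as plain numbers.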

Vapor pressure is log10 of mmHg; the set covers 15 to 30 °C, mostly 20 to 25 °C.

| compound | log vapor pressure (log10 mmHg) |
|---|---|
| NNC(=O)CCCCCCCCC(=O)NN | -8.253 |
| C=C(CC(C)(C)c1ccccc1)c1ccccc1 | -3.323 |
| O=C(O)c1c(F)cc(Br)cc1F | -5.782 |
| CC1(C)NC(=O)NC1=O | -5.545 |
| C=C(Cl)C(=O)OCCC(F)(F)C(F)(F)C(F)(F)C(F)(F)C(F)(F)C(F)(F)F | -1.315 |
| Nc1ccccc1S(=O)(=O)O | -6.694 |
| O=c1nc[nH]c2nc[nH]c12.[Na] | -9.634 |
| COc1ccc(C(Cl)(c2ccccc2)c2ccc(OC)cc2)cc1 | -6.799 |
| CCN(CC)c1ccc(N=Nc2c(C#N)cc([N+](=O)[O-])cc2C#N)c(NC(C)=O)c1 | -9.319 |
| C[Si](Cl)(Cl)CCl | 1.051 |
| Clc1cc(Cl)cc(-c2ccc(Cl)cc2Cl)c1 | -4.295 |
| Cc1c(Cl)cc(-c2ccc(O)nn2)cc1Cl | -7.011 |
| CCN(CCO)c1ccc(/N=N/c2sc3cc(OC)ccc3[n+]2C)cc1.[Cl-] | -7.878 |
| Cl.Nc1c(OCCO)nn2ccccc12 | -7.782 |
| O=c1[c-](-c2cccc(C(F)(F)F)c2)c(=O)[n+]2ccccc2n1Cc1cncnc1 | -9.684 |
| Clc1cc(Cl)ncn1 | -0.541 |
| Brc1cc(Br)c(Br)cc1Br | -2.924 |
| CCCCCC[C@H](C/C=C\CCCCCCCC(=O)OCC(COC(=O)CCCCCCC/C=C\C[C@@H](CCCCCC)OC(C)=O)OC(=O)CCCCCCC/C=C\C[C@@H](CCCCCC)OC(C)=O)OC(C)=O | -9.639 |
| CC(CO)C1CCCCCCCCCCC1 (configuration not stated) | -3.979 |
| C=C[Si](C)(OC)OC | 1.479 |
| COC(=O)C(N)CO.Cl (configuration not stated) | -4.546 |
| CC(=O)CC(=O)Nc1ccccc1C | -6.182 |
| NCCCN | 0.591 |
| CN(C)CCN(C)CCO | -0.365 |
| CC(C)c1ccc2c(c1)OCC(=O)CO2 | -2.874 |
| CCOc1cc(CO)ccc1O | -4.694 |
| CC(CO)CCCC1CCCCC1 (configuration not stated) | -2.782 |
| CC(C)c1ccc2cc(C(C)C)ccc2c1 | -2.426 |
| CCON | 1.943 |
| CCCc1ccc(O)c(OC)c1 | -1.648 |
| CSC(C)=NO | -2.028 |
| Oc1cc(Cl)cc(Br)c1 | -4.425 |
| Cc1ccc(CO)cc1 | -2.05 |

Repeated from above, the 4 entries with the highest log vapor pressure:

| compound | log vapor pressure (log10 mmHg) |
|---|---|
| CCON | 1.943 |
| C=C[Si](C)(OC)OC | 1.479 |
| C[Si](Cl)(Cl)CCl | 1.051 |
| NCCCN | 0.591 |